Among the data in PubChem BioAssay AID1471 (National Center for Advancing Translational Sciences (NCATS), 2008) are cytoprotection (ATP increase) values, retold here.

Where “and” joins values, the source holds several entries; their conditions need not be identical. Equal values may be shown once. Only a part is listed here, and it is no random draw. Calls of active or inactive are those of the source. Calls come from the whole dose curve; as a rule, active = well fitted activation curve with a large enough effect; inconclusive = small, poorly fitted or top-dose-only effect; inactive = no such curve, though single readings can be large or run the other way.

The nature of this experiment: qHTS Multiplex Assay to Identify Dual Action Probes in a Cell Model of Huntington: Cytoprotection (ATP).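 Note: toxic huntingtin expression switched on by the ecdysone agonist tebufenozide; % of control where 0% means no effect; nearly all actives have a fitted effect of over 45% in size.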 The note with it: PC12 HTT-Q103 induced, ATP luminescence, 40 h; at 56.4 µM (top of the series). The text has this:
NIH Chemical Genomics Center [NCGC]
NIH Molecular Libraries Probe Production centers Network [MLPCN]
Assay Submitter (PI): Wei Zheng
Huntington's disease is a neurodegenerative disorder caused by a trinucleotide repeat expansion in Exon 1 of the Huntingtin gene. The CAG trinucleotide encodes glutamine and polyglutamine expansions cause cell death in selective areas of the brain. Huntington polyglutamine repeats have the tendency to form aggregates which are observable in later stages of the disease. The exact nature of the aggregates, whether toxic, protective, or insignificant, is unclear.
A stable PC12 cell line containing a gene fusion of Exon 1 of the Huntingtin gene linked to GFP under the control of the inducible ecdysone promoter were used as the cell-based model of Huntington Disease for high throughput screening. Exon 1 of the Huntingtin gene contained an expansion of 103 polyglutamines (Q103) which, when expressed, caused cell death and distinct, bright GFP aggregates. […] The cell death were quantified with a measurement of ATP content in the cells. […]
We optimized this assay in a homogeneous 1536 well format. A quantitative high throughput screen (qHTS) was conducted on the PC12 cells which were induced to express the toxic fusion construct. Small molecules which prevented cell death were identified by using a luminescent ATP quantification method (Perkin Elmer's ATPlite). […]
For orientation: Quantitative high-throughput screening tests each substance at several concentrations.
As for `O=[N+]([O-])C(Cl)(Cl)Cl`, the cytoprotection (ATP increase) was inactive: -7.93%. Take `CN(CCCl)CCCl`: the cytoprotection (ATP increase) was inactive: -62.9% and inactive: -269%.
